From ChEMBL document CHEMBL1150028, “-((Tetronoyl)oxy)- and -((tetramoyl)oxy)methyl ketone inhibitors of the interleukin-1 converting enzyme (ICE)” (Bioorg Med Chem Lett, 1997)

Molecular target: T1, Caspase-1 (Homo sapiens) (UniProt P29466)
T1 sequence (whole entry): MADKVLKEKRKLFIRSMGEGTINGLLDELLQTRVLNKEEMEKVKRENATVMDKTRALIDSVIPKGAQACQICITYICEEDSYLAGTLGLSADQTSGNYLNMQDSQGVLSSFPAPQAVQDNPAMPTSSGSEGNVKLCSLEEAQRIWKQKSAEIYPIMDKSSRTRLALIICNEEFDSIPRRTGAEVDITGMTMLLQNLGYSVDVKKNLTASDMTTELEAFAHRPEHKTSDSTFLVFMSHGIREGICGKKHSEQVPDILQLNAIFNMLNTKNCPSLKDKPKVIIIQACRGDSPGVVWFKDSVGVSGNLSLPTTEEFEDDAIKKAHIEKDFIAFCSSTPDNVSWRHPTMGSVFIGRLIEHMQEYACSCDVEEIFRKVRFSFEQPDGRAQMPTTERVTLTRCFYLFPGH
Assay: Inhibitory activity against IL-1 beta converting enzyme was determined

Structure (SMILES)	K obs / 1 [M⁻¹ s⁻¹]
CC(C)[C@H](NC(=O)OCc1ccccc1)C(=O)N[C@@H](C)C(=O)N[C@@H](CC(=O)O)C(=O)COC1=C(Cc2ccccc2)C(=O)OC1	252000
CC(C)[C@H](NC(=O)OCc1ccccc1)C(=O)N[C@@H](C)C(=O)N[C@@H](CC(=O)O)C(=O)COC(=O)c1c(Cl)cccc1Cl	407000
